This data set concerns the target RgpB (Porphyromonas gingivalis, UniProt P95493). The conditions noted are these: RgpB [E]active 200 nM, Michaelis-Menten fit.

By UniProt entry, the sequences of proteins in these tests, tags left out. Residues count along the entry.
UniProt P95493, 230-736: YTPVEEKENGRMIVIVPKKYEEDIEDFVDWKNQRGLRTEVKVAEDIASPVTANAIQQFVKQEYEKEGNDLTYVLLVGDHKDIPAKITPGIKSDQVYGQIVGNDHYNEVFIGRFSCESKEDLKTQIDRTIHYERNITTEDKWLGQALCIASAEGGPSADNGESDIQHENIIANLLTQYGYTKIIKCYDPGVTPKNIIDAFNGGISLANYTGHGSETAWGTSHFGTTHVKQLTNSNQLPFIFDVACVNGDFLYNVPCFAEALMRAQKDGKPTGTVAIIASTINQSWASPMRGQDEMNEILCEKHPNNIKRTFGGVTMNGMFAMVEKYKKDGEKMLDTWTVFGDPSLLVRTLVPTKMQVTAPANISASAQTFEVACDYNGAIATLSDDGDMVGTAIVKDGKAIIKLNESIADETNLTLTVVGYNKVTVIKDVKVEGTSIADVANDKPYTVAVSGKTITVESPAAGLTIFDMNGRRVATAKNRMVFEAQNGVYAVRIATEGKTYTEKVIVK

For “Ala – Gly – Pro – Arg – Ile – Asp – Lys [RgpB FRET Probe]”, the Km (commonly the concentration of substrate that gives half-maximal velocity) amounted to 7 µM; the kcat (as a rule, the number of substrate molecules converted per active site and unit of time at saturation) came out at 0.501 s⁻¹.

The record behind these values is article PMC10879876, “Activatable prodrug for controlled release of an antimicrobial peptide via the proteases overexpressed in Candida albicans and Porphyromonas gingivalis” (Theranostics, 2024).
